Columns and labels:
human primary tumors = assay: Growth of human primary tumors in soft agarose; type: cell-based
[1] = system: MCF-7 breast cancer cells in scid mice; assay: Activity against MCF-7 breast cancer cells in scid mice; type: in vivo
Excerpt: This is shown below in Table II.

[2] = target: T1, Human placental thioredoxin reductase (Homo sapiens, UniProt Q16881); assay: NADPH oxidation by thioredoxin reductase with the disulfide as substrate, or with thioredoxin and insulin as final electron acceptor and the disulfide as inhibitor; type: biochemical; conditions: competitive inhibitors of the reduction of thioredoxin by thioredoxin reductase
T1 sequence (Q16881 1-499 isoform Q16881-5): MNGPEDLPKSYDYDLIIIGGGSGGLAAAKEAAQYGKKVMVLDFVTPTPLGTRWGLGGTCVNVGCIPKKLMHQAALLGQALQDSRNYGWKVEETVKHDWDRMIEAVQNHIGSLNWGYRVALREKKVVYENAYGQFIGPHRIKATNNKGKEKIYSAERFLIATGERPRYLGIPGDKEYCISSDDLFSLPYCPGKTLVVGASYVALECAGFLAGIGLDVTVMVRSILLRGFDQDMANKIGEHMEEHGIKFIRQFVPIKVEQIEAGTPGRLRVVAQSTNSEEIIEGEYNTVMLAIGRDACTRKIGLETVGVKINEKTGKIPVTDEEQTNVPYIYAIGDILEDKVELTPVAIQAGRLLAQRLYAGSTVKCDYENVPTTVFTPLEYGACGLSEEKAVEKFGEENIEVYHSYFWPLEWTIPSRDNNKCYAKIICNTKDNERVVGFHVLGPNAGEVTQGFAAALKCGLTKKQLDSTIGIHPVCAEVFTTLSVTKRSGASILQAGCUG
Description: The thioredoxin was stored at −20° C. with 5 mM dithiothreitol which was removed before use with a desalting column (PD10, Pharmacia, Uppsala, Sweden).
Asymmetrical 2-imidazolyl disulfides which were used as a basis for further development and identified below in Table 1. In Table I, NADPH oxidation by thioredoxin reductase was measured spectrophotometrically as described with either the disulfide as the electron acceptor (substrate) or with thioredoxin and insulin as the final electron acceptor and the disulfide as inhibitors. The reactions were initiated by the addition of NADPH. Km and Ki values were calculated from Lineweaver-Burk plots of the data.
The compounds of Table 1 were synthesized by a method described previously and recrystallized prior to use. Stock solutions of the disulfides were prepared at 10 mM in ethanol and diluted in aqueous media just prior to use. N-ethylmaleimide (NEM), diamide, and DTT were obtained from Sigma Chemical Co. (St. Louis, Mo.). All other chemicals used were of reagent grade. […]

With `CCC(C)SSc1ncc[nH]1` (centres unmarked) [IV-2, 1-methylpropyl 2-imidazolyl disulfide] as the molecule, how does the “tumor type selectivity in soft agarose” value (human primary tumors) read?
Its value is “selectivity for myeloma, cervical and breast cancer”.

What about the Toxicity dead/injected ([1]; 5 mg/kg/day i.p. for 14 days) of the same molecule?
The Toxicity dead/injected was 2/8.

And the Toxicity dead/injected ([1]; 10 mg/kg/day i.p. for 14 days)?
Its Toxicity dead/injected is 0/7.

And the Toxicity dead/injected ([1]; 15 mg/kg/day i.p. for 14 days)?
Its Toxicity dead/injected is 0/7.

What about the Ki [2] of the same molecule?
The Ki was 31 µM.

From patent publication US6552060B1, “Asymmetric disulfides and methods of using same” (Prolx Pharmaceuticals, Inc., priority 1997, dated 2003)
